The structures appear in SMILES notation.

This experiment addresses cGMP-specific 3',5'-cyclic phosphodiesterase (Homo sapiens, UniProt O76074). Description: Inhibitory activity against PDE5 from human corpus cavernosum.

A word on the Ki: it is the dissociation constant of the complex between target and ligand, obtained from inhibition or displacement. Low values mean higher affinity, high ones lower affinity. As to `Cc1ncc(-c2cnc(N3CCc4c([nH]c5ccccc45)C3c3ccc4c(c3)CCO4)nc2)n1C` (stereo unspecified), the affinity corresponds to a Ki of 24 nM.
